# Target: Gαi1-Rluc8 and CCR2-YFP (Homo sapiens, UniProt P41597)
# Protein sequences, listed by entry. Tags and fused reporters are not part of them. Lines headed by an entry give the natural chain unless they say otherwise; changes in a name come on top.
# UniProt P41597: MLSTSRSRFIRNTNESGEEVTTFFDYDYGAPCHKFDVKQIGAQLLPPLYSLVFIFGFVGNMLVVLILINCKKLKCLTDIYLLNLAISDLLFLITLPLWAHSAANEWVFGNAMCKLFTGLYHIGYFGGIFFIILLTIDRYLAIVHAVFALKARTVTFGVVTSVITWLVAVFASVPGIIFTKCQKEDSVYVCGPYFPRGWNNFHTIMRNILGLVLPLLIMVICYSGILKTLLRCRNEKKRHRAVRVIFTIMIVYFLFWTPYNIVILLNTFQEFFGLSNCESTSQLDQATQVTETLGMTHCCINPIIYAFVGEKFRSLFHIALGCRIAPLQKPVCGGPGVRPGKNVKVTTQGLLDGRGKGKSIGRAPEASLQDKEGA
# Test: Gαi1 coupling, ligand-induced BRET, absence of AT1R (Example 7, top panel)
# Format: cell-based
# Conditions: HEK293FT cells; various concentrations of MCP-1; FIG. 9
substance,measurement,value
"MCP-1: Monocyte chemotactic protein-1, also known as monocyte chemoattractant protein-1",change in BRET between Gαi1-Rluc8 and CCR2-YFP (receptor activation and coupling to Gαi1),in a dose-dependent manner

# Source: US12083102B2, “Method for treating inflammatory disorders” (DIMERIX BIOSCIENCE PTY LTD, priority 2011, dated 2024)
